# Test results taken from PubChem BioAssay AID493087 (The Scripps Research Institute Molecular Screening Center, 2011).
# By UniProt entry, the sequences of proteins in these tests, tags left out.
# UniProt P14735, whole entry: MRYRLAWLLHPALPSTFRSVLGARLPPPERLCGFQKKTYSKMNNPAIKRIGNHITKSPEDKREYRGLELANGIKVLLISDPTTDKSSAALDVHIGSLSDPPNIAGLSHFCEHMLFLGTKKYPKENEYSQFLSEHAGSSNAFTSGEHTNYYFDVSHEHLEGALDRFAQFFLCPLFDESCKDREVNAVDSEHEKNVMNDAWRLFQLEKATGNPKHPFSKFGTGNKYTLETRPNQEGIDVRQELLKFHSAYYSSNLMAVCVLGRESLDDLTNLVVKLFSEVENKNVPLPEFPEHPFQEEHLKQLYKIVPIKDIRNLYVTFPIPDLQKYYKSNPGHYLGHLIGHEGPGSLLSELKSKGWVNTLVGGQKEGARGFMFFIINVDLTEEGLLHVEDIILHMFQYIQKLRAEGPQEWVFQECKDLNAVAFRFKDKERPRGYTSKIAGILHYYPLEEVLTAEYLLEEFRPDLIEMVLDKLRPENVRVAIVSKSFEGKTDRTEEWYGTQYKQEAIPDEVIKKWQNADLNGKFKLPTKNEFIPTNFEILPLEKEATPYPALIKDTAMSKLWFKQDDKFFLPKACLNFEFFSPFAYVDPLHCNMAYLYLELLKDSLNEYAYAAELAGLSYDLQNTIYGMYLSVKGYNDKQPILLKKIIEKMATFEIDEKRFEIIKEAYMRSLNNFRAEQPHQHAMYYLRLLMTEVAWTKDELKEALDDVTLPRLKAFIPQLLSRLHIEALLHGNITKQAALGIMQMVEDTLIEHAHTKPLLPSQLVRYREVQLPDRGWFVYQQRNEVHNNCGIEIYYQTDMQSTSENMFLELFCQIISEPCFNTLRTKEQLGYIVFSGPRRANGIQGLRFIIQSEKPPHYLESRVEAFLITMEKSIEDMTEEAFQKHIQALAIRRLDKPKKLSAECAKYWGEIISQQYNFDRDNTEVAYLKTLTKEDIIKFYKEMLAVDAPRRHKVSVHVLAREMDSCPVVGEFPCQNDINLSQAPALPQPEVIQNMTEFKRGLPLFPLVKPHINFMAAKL
# Only a part is listed here, and it is no random draw. Some tests of the compounds listed are not included; inactive here does not mean inactive elsewhere. Active and inactive are the calls of the source.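 Rule for the calls: active = activation above the mean of all tested compounds plus 3 SD, set per screening campaign (cut at about 17% in these data); inactive = the rest.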
# Target: Insulin-degrading enzyme (Homo sapiens) (UniProt P14735)
# Assay: human IDE activators in live cells, primary screen, fluorescence polarization, HEK cells, FAbeta-B substrate (AID 493087)
# Settings: FAbeta-B cleavage, at 5.96 µM, active compounds read high, 0% vehicle, 100% cell-free pure enzyme wells
row,SMILES,activation
1,Cc1ccccc1C(=O)NCC1(N2CCCCC2)CCCCC1,inactive: 4.6%
2,CN(C)C1CCCC1OC(=O)C(O)(c1ccccc1)c1ccccc1 (stereo not given),inactive: 1.02%
3,CN(C)c1ccc(C(=O)NCC2(N(C)C)CCCCC2)cc1,inactive: -1.96%
4,C=CCN1CCN(CCOC(=O)C(O)(c2ccccc2)c2ccccc2)CC1,inactive: 0.49%
5,O=C(NCC1(N2CCCCC2)CCCCC1)c1cc(F)c(F)cc1Cl,inactive: 0.24%
6,COc1ccc(C(=O)NCC2(N(C)C)CCCCC2)cc1,inactive: -3%
7,Cc1cc(C(=O)NCC2(N3CCCCC3)CCCCC2)ccc1[N+](=O)[O-],inactive: 2.08%
8,CCN1CCCC(OC(=O)C2(O)c3ccccc3C=Cc3ccccc32)C1 (stereo not given),inactive: 1.27%
9,O=C(NCC1(N2CCCCC2)CCCCC1)c1cccc(Br)c1,inactive: 1.32%
10,O=C(NCC1(N2CCCCC2)CCCCC1)c1cc([N+](=O)[O-])ccc1Cl,inactive: 0.49%
11,CN1[C@@H]2CC[C@H]1CC(OC(=O)C(O)(c1ccccc1)c1ccccc1)C2 (stereo not given in full),inactive: -1.35%
12,CCN(CC)CC(C)C(C)OC(=O)C(O)(c1ccccc1)c1ccccc1 (stereo not given),inactive: 0.02%
13,COc1cc(SC)ccc1C(=O)NCC1(N(C)C)CCCCC1,inactive: 4.22%
14,CC(C)N1C(=O)CC2(CCN(CCOC(=O)C(O)(c3ccccc3)c3ccccc3)CC2)C1=O,inactive: 1.28%
15,Cc1ccc(C(=O)NCC2(N3CCCCC3)CCCCC2)cc1,inactive: -0.48%
16,O=C(OC1CN2CCC1CC2)C(CO)(c1ccccc1)c1ccccc1 (stereo not given),inactive: 2.48%
17,COc1ccc(Br)c(C(=O)NCC2(N3CCCCC3)CCCCC2)c1,inactive: -3.84%
18,CC(C)Oc1ccc(C(=O)NCC2(N(C)C)CCCCC2)cc1,inactive: 4.39%
19,O=C(OCCN1CCCC1)C(O)(c1ccccc1)c1ccccc1,inactive: 5.09%
20,CN(C)c1cccc(C(=O)NCC2(N(C)C)CCCCC2)c1,inactive: -2.65%
21,CN(C)C1(CNC(=O)c2ccc(Br)cc2)CCCCC1,inactive: 7.77%
22,COc1cc(C(=O)NCC2(N(C)C)CCCCC2)c([N+](=O)[O-])cc1OC,inactive: 2.89%
23,COc1cccc(C(=O)NCC2(N3CCCCC3)CCCCC2)c1,inactive: -1.61%
24,COc1ccc(Cl)cc1C(=O)NCC1(N(C)C)CCCCC1,inactive: 3.26%
25,O=C(NCC1(N2CCCCC2)CCCCC1)c1cccc(Cl)c1,inactive: 5.62%
